# According to patent publication US11135316B2, “Imaging and treatment of pathophysiologic conditions by Cerenkov radiation” (priority 2014, dated 2021):
# Assay: Solubility of Tc
# Type: physicochemical
# Protocol: Synthesis of TiO2-PEG, TiO2-Tf, Tc-Tf and TiO2-Tf-Tc. Anatase TiO2 (1 mg; Sigma Aldrich Co.) was suspended in deionized water (1 ml) to prepare a working stock solution. PEG 400 (100 μl) was added to the TiO2 solution and sonicated using a probe sonicator for 10 min at room temperature (RT). The mixture was then dialyzed overnight against Dulbecco's Phosphate Buffered Saline (DPBS) using a 3000 Da molecular weight cutoff (MWCO) Slide-A-Lyzer MINI Dialysis Device (Thermo Fisher Scientific Inc.) to remove excess PEG. Working stock solutions of Tf were prepared by dissolving 5 mg of human apo-Tf (Sigma Aldrich Co.) in 1 ml DPBS, pH 7.4. To prepare TiO2-Tf, a 1:1 (v/v) solution of TiO2 and Tf was mixed and probe sonicated in continuous mode for 5 min. The solution was then immediately passed through a 0.45 μm syringe filter to isolate monodisperse nanoparticles. To prepare Tc-Tf, five-fold molar excess of Tc (Sigma Aldrich Co.) was added to human apo-Tf and incubated in a shaker for 2 h at room temperature (RT). […] The mixture was then dialyzed overnight against DPBS using a 3000 Da molecular weight cutoff (MWCO) Slide-A-Lyzer MINI Dialysis Device to remove excess Tc. TiO2-Tf-Tc was similarly prepared by incubating Tc with TiO2-Tf conjugates and thereafter dialyzing to remove excess Tc. […]
substance,measurement,value
Titanocene dichloride [Tc],solubility in water and aqueous buffers,low solubility
